Laboratory results taken from PMC10953408.

By UniProt entry, the sequences of proteins in these tests, tags left out. Where a name states a change or a piece, a line headed by the entry shows the natural chain unless it says otherwise.
UniProt Q5VWK5: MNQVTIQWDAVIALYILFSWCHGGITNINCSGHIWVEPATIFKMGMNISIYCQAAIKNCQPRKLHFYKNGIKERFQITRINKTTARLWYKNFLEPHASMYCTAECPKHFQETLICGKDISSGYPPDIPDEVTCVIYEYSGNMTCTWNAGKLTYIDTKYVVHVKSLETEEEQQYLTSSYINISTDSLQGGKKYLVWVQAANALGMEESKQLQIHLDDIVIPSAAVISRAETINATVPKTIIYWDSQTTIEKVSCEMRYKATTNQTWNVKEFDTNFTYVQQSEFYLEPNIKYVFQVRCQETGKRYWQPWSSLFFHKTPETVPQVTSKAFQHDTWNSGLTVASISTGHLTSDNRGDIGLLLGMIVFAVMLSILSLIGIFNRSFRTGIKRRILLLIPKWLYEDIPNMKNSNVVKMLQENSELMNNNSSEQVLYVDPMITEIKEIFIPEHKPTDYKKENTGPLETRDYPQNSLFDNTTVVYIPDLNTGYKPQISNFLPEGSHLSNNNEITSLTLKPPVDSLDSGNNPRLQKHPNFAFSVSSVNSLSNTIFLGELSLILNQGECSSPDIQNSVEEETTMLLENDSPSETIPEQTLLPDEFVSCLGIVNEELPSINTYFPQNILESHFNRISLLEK

Target: HiBit‐IL23R (UniProt Q5VWK5)
Assay: split reporter (BiFC, NanoBiT); complementary NanoBiT-tagged receptor constructs co-expressed in HEK293T cells; luminescence of living cells in HBSS with 1 mg/ml BSA after furimazine, plate reader; with or without 10 nM IL-23, with or without co-expressed untagged IL12Rβ1

Substance: IL12Rβ1 (from UniProt P42701 24-662) (receptor)
- fold reduction of the luminescence of HiBit-IL23R with LgBit-IL23R on co-expression of IL12Rβ1: 6.73 fold
